Experimental findings from patent US9556229B2, “Modification of peptides using a bis(thioether)arylbridge approach” (priority 2012, dated 2017) are described below.

Broadly, the EC50 is the concentration at which the effect is half-maximal. The low end stands for greater potency, the high end for weaker potency.

For this assay, the system named is HCT116 colorectal cancer cells.

`CC(C)C[C@H](NC(=O)[C@H](C)NC(=O)[C@H](Cc1c[nH]c2ccccc12)NC(=O)[C@H](Cc1ccc(O)cc1)NC(=O)[C@H](CCC(=O)O)NC(=O)[C@H](C)NC(=O)[C@H](Cc1ccccc1)NC(=O)[C@H](CO)NC(=O)[C@@H](N)[C@@H](C)O)C(=O)N[C@@H](CC(C)C)C(=O)N[C@@H](CO)C(=O)N1CCC[C@H]1C(N)=O` [PMI_M, reference compound] yielded an EC50 of 179 µM.
